# In patent publication US7919460B2, “Method for prophylaxis of reflex sympathetic dystrophy after stroke” (Asahi Kasei Pharma Corporation, priority 2006, dated 2011):
# System: patients with hemiplegia attributed to cerebrovascular disease (stroke), onset of RSD (shoulder-hand syndrome)
# Design: species or system humans
# Settings: in vivo
# Description: Test subjects were 33 patients with hemiplegia attributed to cerebrovascular disease (stroke) at Brunnstrom stage III or lower in either the upper limb or a finger on admission. Patients already developing RSD (shoulder-hand syndrome) on admission and patients with pain in the shoulder joint or swollen paralyzed limbs were excluded from the test. To 12 of these 33 test subjects, 20 units of elcatonin (Elcitonin Injection 20S; Asahi-Kasei Pharma; hereinafter, referred to as EL) were intramuscularly administered once a week immediately after admission (EL administration group). On the other hand, 21 test subjects were classified into a rehabilitation alone group (control group) and compared with the EL administration group. Physical therapy and therapeutic exercise, occupational therapy, and the management of the paralyzed limbs were performed thoroughly in all the cases. […] EL administration was initiated 11 to 59 days after an attack of stroke (25.8 days on average) and continued until 5 months after the attack of stroke. The same observation period was applied to the control group. […]
# Activities of daily living (ADL) were evaluated on the basis of the Barthel Index (BI) and the range of motion (ROM) of shoulder joint. […]
substance,measurement,value
1-butyric acid-7-(L-2-aminobutyric acid)-26-L-aspartic acid-27-L-valine-29-L-alanine-calcitonin [elcatonin],Side effects during the test period,no significant or serious side effect was observed
